According to patent US20140302113A1, “SYSTEMS, DEVICES, AND METHODS FOR EMBEDDING DRUG MOLECULES INTO MEDICAL CATHETERS OR TUBES” (priority 2011, published 2014):

Test: Lidocaine loading process into Foley catheter from loading solution at 40-41° C.
Format: physicochemical
Settings: water based loading solution (glycerin, Natrasol, methyl paraben)
Description: This solution can also function as lubricant jelly. […] The bottle was then placed into a Styrofoam® box and heated in an oven with digital temperature control. The temperature inside the box was maintained at about 40-41° C. for the next 48 days. […] Observations were recorded at days 2, 9, 16, 26, 38 (start of room temperature storage), and 69.

CCN(CC)CC(=O)Nc1c(C)cccc1C [Lidocaine, lidocaine]
saturation concentration of lidocaine in the loading solution: 4.6 mg/mL
